These results are taken from US11696956B2, “Bicyclic peptide ligands specific for EphA2” (BicycleTx Limited, priority 2017, dated 2023).

Chains of the proteins cited; added tags and fusions are not shown. Residues count along the entry.
UniProt P29317, 24-537 limits assumed: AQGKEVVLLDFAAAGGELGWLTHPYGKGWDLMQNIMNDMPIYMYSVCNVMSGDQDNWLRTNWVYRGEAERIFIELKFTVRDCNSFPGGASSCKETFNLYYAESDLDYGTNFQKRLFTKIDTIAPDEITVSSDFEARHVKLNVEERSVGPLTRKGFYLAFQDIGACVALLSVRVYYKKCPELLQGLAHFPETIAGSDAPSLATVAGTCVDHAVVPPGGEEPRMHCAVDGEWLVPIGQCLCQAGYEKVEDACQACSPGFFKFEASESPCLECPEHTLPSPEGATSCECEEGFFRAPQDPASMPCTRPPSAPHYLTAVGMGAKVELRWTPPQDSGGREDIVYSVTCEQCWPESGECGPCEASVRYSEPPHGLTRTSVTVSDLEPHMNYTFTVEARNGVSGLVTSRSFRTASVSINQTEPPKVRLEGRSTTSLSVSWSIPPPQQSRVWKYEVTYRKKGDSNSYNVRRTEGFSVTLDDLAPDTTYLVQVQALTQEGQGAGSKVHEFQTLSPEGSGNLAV
UniProt D3ZBN3, 26-205: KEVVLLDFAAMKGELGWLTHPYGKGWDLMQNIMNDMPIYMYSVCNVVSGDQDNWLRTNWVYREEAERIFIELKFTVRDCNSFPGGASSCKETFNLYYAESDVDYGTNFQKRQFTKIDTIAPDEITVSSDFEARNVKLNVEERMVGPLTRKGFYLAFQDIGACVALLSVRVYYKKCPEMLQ
UniProt D3ZBN3, 26-200: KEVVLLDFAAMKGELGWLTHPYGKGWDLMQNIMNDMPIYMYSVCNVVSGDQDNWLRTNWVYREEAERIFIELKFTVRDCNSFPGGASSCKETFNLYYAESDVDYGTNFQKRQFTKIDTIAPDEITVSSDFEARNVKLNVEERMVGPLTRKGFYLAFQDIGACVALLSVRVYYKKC
UniProt Q03145, 26-538 limits assumed: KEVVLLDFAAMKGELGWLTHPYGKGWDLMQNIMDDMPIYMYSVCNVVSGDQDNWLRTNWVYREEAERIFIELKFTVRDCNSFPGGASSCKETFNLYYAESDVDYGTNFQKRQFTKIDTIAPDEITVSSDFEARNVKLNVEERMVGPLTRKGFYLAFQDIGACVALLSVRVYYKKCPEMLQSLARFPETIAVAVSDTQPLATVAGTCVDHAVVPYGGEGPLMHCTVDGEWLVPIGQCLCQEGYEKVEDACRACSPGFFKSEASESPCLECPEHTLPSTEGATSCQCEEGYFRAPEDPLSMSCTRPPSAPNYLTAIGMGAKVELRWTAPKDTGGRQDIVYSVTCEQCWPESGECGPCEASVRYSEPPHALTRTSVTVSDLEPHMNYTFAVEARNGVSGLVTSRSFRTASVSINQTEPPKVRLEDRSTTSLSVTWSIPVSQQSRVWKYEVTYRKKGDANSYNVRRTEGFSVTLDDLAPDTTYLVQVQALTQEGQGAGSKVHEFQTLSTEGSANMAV
UniProt P28907, whole entry: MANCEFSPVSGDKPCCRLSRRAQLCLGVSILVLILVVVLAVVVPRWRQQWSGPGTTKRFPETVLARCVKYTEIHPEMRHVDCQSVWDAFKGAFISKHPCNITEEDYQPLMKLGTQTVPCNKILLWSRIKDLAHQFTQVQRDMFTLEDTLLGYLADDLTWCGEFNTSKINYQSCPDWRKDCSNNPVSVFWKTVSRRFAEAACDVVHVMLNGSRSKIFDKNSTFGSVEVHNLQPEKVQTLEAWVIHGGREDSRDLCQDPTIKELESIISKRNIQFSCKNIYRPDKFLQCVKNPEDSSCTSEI
UniProt P54764, 20-547 limits assumed: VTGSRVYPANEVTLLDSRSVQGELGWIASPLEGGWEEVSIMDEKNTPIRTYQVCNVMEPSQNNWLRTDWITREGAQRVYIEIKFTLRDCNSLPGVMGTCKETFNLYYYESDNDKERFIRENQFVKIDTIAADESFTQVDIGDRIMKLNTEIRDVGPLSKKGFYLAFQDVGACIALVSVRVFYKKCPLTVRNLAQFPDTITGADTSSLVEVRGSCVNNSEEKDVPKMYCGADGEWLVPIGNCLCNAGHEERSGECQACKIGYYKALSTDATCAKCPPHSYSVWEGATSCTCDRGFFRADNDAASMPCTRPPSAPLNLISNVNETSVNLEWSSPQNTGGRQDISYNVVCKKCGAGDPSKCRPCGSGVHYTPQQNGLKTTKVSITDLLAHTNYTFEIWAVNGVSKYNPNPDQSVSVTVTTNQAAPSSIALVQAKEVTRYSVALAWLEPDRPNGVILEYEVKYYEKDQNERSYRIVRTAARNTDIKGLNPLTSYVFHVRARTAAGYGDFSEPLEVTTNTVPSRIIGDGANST

Assay [1] has as its target T1, Human EphA2 (Homo sapiens, UniProt P29317).
T1 construct: EphA2 (Ecto); Human; C-terminal; R&D systems; 3035-A2; polyHis (C); purchased R&D systems 3035-A2
In words: FP competition binding (Study 2, alternative protocol). The note with it: read-out: Human Ki; Table 10, bicyclic peptides.

Assay [2] concerns the target T2, rat EphA2 (Rattus norvegicus, UniProt D3ZBN3). Described as above. Details: Rat; C-; In-house; N/A; polyHis (C); made in house. The following applies: read-out: Rat Ki; Table 10, bicyclic peptides.
Assay [3] concerns the target T3, Mouse EphA2 (Mus musculus, UniProt Q03145). Described as above. Also noted: EphA2 (Ecto); Mouse; C-; Sino; 50586-M08H; polyHis (C); purchased Sino Biological 50586-M08H. The note with it: read-out: Mouse Ki; Table 10, bicyclic peptides.
Assay [4] concerns the target T1, Human EphA2. In words: SPR measurements. Type of assay: binding. The following applies: read-out: Human KD. On the procedure: Non-Fc fusion proteins were biotinylated with EZ-Link™ Sulfo-NHS-LC-Biotin for 1 hour in 4 mM sodium acetate, 100 mM NaCl, pH 5.4 with a 3× molar excess of biotin over protein. The degree of labelling was determined using a Fluorescence Biotin Quantification Kit (Thermo) after dialysis of the reaction mixture into PBS. For analysis of peptide binding, a Biacore T200 instrument was used utilising a XanTec CMD500D chip. Streptavidin was immobilized on the chip using standard amine-coupling chemistry at 25° C. with HBS—N (10 mM HEPES, 0.15 M NaCl, pH 7.4) as the running buffer. […] Residual activated groups were blocked with a 7 min injection of 1 M ethanolamine (pH 8.5):HBS—N(1:1). Buffer was changed to PBS/0.05% Tween 20 and biotinylated EphA2 was captured to a level of 500-1500 RU using a dilution of protein to 0.2 μM in buffer. A dilution series of the peptides was prepared in this buffer with a final DMSO concentration of 0.5% with a top peptide concentration was 50 or 100 nM and 6 further 2-fold dilutions. The SPR analysis was run at 25° C. at a flow rate of 90 μl/min with 60 seconds association and 900-1200 seconds dissociation. Data were corrected for DMSO excluded volume effects. […]
In general terms: In SPR one partner is held on a chip, and binding of the other changes the refractive index at the surface.

The target of the next assay is human CD38 (Homo sapiens, UniProt P28907). In words: Selectivity direct binding assay (FP). The note with it: read-out: human CD38, Table 7. On the procedure: (§1) Peptides with a fluorescent tag (either fluorescein, SIGMA or Alexa Fluor488™, Fisher Scientific) were diluted to 2.5 nM in PBS with 0.01% tween 20 or 50 mM HEPES with 100 mM NaCl and 0.01% tween pH 7.4 (both referred to as assay buffer). This was combined with a titration of protein in the same assay buffer as the peptide to give 1 nM peptide in a total volume of 25 μL in a black walled and bottomed low bind low volume 384 well plates, typically 5 μL assay buffer, 10 μL protein (Table 1) then 10 μL fluorescent peptide. […] . […] . The gain used for analysis was determined for each tracer at the end of the 60 minutes where there was no protein in the well. […] “Lig” was a defined value of the concentration of tracer used.

A further assay has as its target T4, human EphA4 (Homo sapiens, UniProt P54764).
T4 construct: EphA4 (Ecto); Human; Fc fusion; R&D systems; 6827-A4; Fc fusion (R&D 6827-A4) or C-terminal polyHis (Sino Biological 11314-H08H); purchased R&D systems or Sino Biological 6827-A4 or 11314-H08H
In words: Selectivity direct binding assay (FP). The note with it: read-out: human EphA4, Table 7. On the procedure:
as §1

The next assay addresses T5, rat EphA3 (Rattus norvegicus, UniProt O08680).
T5 construct: EphA3 (Ecto); Rat; C-; Sino; 80465-; polyHis (C); purchased Sino Biological 80465-R08H
T5 sequence (O08680 21-541 limits assumed): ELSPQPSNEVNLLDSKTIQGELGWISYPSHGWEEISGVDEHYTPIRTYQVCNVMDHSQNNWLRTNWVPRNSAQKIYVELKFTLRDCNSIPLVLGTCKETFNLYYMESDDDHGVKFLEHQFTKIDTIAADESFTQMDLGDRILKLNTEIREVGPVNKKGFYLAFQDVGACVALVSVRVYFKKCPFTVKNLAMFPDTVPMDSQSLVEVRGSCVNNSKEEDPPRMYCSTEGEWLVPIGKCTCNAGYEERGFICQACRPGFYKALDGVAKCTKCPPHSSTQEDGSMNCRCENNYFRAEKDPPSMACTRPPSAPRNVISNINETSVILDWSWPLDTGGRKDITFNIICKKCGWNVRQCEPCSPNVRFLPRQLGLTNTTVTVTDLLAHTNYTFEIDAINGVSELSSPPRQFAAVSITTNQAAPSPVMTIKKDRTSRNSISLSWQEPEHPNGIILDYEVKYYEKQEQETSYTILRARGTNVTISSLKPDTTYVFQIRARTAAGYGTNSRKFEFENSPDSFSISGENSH
Kind of assay: Selectivity direct binding assay (FP). The note with it: read-out: rat EphA3, Table 7. On the procedure:
as §1

The target of assay [5] is T2, rat EphA2. In words: Selectivity direct binding assay (FP). Details: EphA2 (ligand); Rat; C-; In-house; N/A; polyHis (C); made in house. The following applies: read-out: rat EphA2, Table 7. The procedure:
as §1

Assay [6] concerns the target T3, Mouse EphA2. Kind of assay: Selectivity direct binding assay (FP). Also noted: EphA2 (Ecto); Mouse; C-; Sino; 50586-M08H; polyHis (C); purchased Sino Biological 50586-M08H. The following applies: read-out: mouse EphA2, Table 7. The procedure: as §1
Assay [7] has as its target T1, Human EphA2. Kind of assay: Fluorescence polarisation direct binding assay. The following applies: read-out: Human EphA2 (KD, nM ± 95% CI), fluorescently tagged TATA peptides. The procedure:
as §1
For orientation: In fluorescence polarisation assays a small probe gives low polarisation when free and higher when bound to something large.

Bounds are passed on as bounds.

One may read the Ki as the equilibrium dissociation constant of an inhibitor or competing ligand from its target. As for (β-Ala)-Sar5-(SEQ ID NO: 11) [BCY6018], the Ki on Human EphA2 [1] came out at 13.1 nM.

With “(β-Ala)-Sar10-A(D-Arg)DC(HyP)LVNPLCL(D-3,3-DPA)P(D-Asp)W(HArg)C [BCY6141]”, at Human EphA2 [1], the Ki was 90.4 nM.

On to “(β-Ala)-Sar10-A(HArg)DC(HyP)LVNPLCLHP(D-Asp)W(HArg)C [Compound 66]”, for which the figures for the Ki at Human EphA2 [1], on rat EphA2 [2] and at Mouse EphA2 [3] were 2.7 nM, 1.9 nM and 4.5 nM, respectively.

Consider “(β-Ala)-Sar10-ARDCPLVNPLCLHPGWTC [BCY6009]”, for which the Ki was 12.7 nM at Human EphA2 [1], 18 nM at rat EphA2 [2] and 26.7 nM on Mouse EphA2 [3].

For “(β-AlaSO3H)-Sar5-(SEQ ID NO: 11) [BCY6153]”, the Ki at Human EphA2 [1] is 18.2 nM.

Turning to A(HArg)DCPLVNPLCLHPGWTC [BCY6017], the Ki on Human EphA2 [1] was found to be 8.3 nM.

Turning to ACPLVNPLCLHPGWSCRGQ [Compound 87], the Ki at Human EphA2 [1] worked out at 4.4 nM. The Kd at Human EphA2 [4] amounted to 1.02 nM.

As for ACVPDRRCAYMNVCA-Sar6-K(FI) [Compound 2], the Kd is over 6000 nM on human CD38, over 1000 nM at human EphA4, over 1000 nM on rat EphA3 and 210 ± 1.96 nM on rat EphA2 [5].

Turning to ACYVGKECAYMNVCA-Sar6-K(FI) [Compound 7], the Kd at rat EphA2 [5] was found to be 252 ± 6.86 nM; on Mouse EphA2 [6], 216 nM.

For “Ac-(SEQ ID NO: 12)-Sar6-(D-K[Ac]) [BCY6059]”, at Human EphA2 [1], the Ki was determined as 43.2 nM.

As to “Ac-CPLVNPLCLHPGWSC(HArg)GQ-Sar6-(D-K[FI]) [Compound 14]”, at human EphA4, the Kd was over 3000 nM.

Take “Ac-CPLVNPLCLHPGWSCRGQ-Sar6-(D-K) [Compound 91]”: the Ki at Human EphA2 [1] worked out at 6.7 nM.

As to “Ac-CPLVNPLCLHPGWSCRGQ-Sar6-(D-K[FI]) [Compound 13]”, the Kd at human EphA4 is over 3000 nM.

Regarding “Ac-CPLVNPLCLHPGWTCL(D-His)G-Sar6-(D-K[FI]) [Compound 12]”, the Kd at human EphA4 was over 3000 nM.

As for “Ac-CPLVNPLCLHPGWTCLHG-Sar6-(D-K[FI]) [Compound 11]”, on human EphA4, the Kd is over 3000 nM.

“FI-(β-Ala)-Sar10-A(HArg)DCPLVNPLCLHPGWTC [Compound 10]”: the Kd at Human EphA2 [7] came out at 9.07 ± 2.49 nM.

Consider “FI-(β-Ala)-Sar10-ARDCPLVNPLCLHPGWTC [Compound 9]”, for which the Kd on human EphA4 was over 3000 nM.
